This assay deals with T1, MAO-B (Homo sapiens, UniProt P27338).
T1 construct: Autoradiography using [^18F]rasagiline on human brain slices from a healthy subject; from tissue; host or cells: human brain hemisphere cryosections (100 µm)
Briefly: Autoradiography with [^18F]rasagiline on human brain sections, blocking with excess inhibitor. The class given is binding. The protocol: Binding of the [^18F]rasagiline (compound of formula F) was investigated on human brain sections from normal subjects using a standard protocol.
In brief, whole brain hemispheres were cut at a 100 μm thickness in a Cryocut (Leica, Germany), thaw mounted onto gelatine glass slides and kept at −25° C. before use. Thereafter, the slides containing the regions of interest (e.g. hippocampus, thalamus) were removed and brought to room temperature. The sections were incubated with 0.2 MBq/mL [^18F] compound F in 50 mM TRIS/0.1% BSA (pH 7.4) with salts (120 mM NaCl, 5 mM KCl, 1 mM CaCl2, 1 mM MgCl2) for 90 min at room temperature and washed three times for 5 min each in 50 mM TRIS (pH 7.4). The sections were dipped once into ice cold distilled water, dried at room temperature and exposed to PhosphorImager plates (FUJI BAS 5000) overnight.
For detection of the specificity of the signals an excess (10 μM) of deprenyl, rasagiline (both for MAO-B) and pirlindole (for MAO-A), respectively, was used together with the ^18F labelled rasagiline (compound F).

Amino acid sequences for entries named in this document (tags omitted).
UniProt P27338, whole entry: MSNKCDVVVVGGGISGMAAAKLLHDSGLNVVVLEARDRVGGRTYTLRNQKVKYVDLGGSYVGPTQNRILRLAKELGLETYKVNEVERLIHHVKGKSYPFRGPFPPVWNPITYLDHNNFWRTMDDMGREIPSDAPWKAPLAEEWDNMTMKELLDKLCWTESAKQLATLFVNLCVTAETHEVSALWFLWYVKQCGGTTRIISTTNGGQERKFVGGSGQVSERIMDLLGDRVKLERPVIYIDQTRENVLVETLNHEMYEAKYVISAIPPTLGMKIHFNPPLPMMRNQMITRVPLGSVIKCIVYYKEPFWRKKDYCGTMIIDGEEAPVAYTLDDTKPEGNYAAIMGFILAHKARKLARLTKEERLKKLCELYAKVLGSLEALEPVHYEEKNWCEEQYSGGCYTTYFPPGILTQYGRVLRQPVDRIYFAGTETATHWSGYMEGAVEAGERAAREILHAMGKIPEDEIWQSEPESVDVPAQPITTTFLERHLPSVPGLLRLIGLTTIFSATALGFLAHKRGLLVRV

For the substance deprenyl, the “blocking of the [^18F]rasagiline (compound F) autoradiography signal” value is listed as “completely blocked”.
